From ChEMBL document CHEMBL3714709, “T1R hetero-oligomeric taste receptors, cell lines that express said receptors, and taste compounds” (2008)

Chains of the proteins cited; added tags and fusions are not shown. Lines headed by an entry give the natural chain unless they say otherwise; changes in a name come on top.
UniProt Q7RTX0: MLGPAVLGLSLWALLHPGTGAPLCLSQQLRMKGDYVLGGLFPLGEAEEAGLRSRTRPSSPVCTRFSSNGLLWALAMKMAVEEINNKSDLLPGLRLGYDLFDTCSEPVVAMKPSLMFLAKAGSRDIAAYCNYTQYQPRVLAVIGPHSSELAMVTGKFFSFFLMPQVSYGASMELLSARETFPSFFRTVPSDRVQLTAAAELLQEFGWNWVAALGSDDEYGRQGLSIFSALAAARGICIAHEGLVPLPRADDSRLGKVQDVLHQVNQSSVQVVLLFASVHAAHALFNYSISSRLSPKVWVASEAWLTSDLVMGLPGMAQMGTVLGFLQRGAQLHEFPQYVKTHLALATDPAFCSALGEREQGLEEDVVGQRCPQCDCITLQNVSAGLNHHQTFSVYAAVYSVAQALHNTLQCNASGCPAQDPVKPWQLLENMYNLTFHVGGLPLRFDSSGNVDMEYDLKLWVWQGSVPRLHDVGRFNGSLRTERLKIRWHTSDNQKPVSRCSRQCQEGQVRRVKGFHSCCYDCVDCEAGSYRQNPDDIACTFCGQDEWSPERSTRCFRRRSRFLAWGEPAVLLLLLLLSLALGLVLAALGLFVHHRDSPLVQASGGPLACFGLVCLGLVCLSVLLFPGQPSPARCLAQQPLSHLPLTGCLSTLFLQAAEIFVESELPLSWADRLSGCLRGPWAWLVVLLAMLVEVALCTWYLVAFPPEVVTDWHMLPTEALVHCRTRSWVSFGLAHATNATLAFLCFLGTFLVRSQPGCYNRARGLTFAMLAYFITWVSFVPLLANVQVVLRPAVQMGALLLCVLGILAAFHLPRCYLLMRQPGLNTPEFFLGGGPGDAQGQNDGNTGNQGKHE
UniProt Q7RTX1: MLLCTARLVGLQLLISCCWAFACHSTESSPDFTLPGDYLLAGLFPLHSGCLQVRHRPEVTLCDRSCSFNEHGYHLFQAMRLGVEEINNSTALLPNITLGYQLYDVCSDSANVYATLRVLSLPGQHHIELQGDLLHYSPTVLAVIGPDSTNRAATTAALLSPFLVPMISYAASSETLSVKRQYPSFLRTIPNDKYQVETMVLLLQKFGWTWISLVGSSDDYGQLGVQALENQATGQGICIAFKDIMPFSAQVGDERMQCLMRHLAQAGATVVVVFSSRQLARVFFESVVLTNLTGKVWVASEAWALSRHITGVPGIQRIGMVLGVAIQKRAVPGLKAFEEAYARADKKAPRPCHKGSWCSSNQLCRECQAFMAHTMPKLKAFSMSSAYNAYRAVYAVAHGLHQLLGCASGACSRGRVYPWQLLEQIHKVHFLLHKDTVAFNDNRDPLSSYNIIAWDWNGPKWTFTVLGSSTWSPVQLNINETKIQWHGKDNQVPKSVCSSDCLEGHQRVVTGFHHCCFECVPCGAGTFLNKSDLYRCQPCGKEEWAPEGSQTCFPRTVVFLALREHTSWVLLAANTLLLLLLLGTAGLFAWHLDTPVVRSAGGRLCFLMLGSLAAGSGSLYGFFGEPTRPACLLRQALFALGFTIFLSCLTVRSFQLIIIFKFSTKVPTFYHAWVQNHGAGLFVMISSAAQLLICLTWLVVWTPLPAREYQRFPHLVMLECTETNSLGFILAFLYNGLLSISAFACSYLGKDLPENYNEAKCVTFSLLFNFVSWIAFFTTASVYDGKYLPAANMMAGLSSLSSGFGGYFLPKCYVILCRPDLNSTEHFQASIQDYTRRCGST

Legend:
[1] = target: T1, T1R1/T1R3 (Homo sapiens) (UniProt Q7RTX0+Q7RTX1); assay: Activity at human T1R1/T1R3 expressed in HEK293T cells co-expressing Galpha15 assessed as induction of left-ward shift of glutamate/IMP dose response curve at 5 mM relative to untreated control; assay type: cell-based; details: HEK-293T
[2] = target: T1, T1R1/T1R3 (Homo sapiens); assay: Activity at human T1R1/T1R3 expressed in HEK293T cells co-expressing Galpha15 assessed as induction of left-ward shift of glutamate dose response curve at 5 mM relative to untreated control; assay type: cell-based; details: HEK-293T

Activity [1]: inactive
Activity [2]: inactive
SMILES: C=C1C[C@@]23CC[C@H]4[C@@](C)(CCC[C@@]4(C)C(=O)O[C@@H]4O[C@H](CO)[C@@H](O)[C@H](O)[C@H]4O)[C@@H]2CC[C@]1(O[C@@H]1O[C@H](CO)[C@@H](O)[C@H](O)[C@H]1O[C@@H]1O[C@H](CO)[C@@H](O)[C@H](O)[C@H]1O)C3

Calls of active or inactive are those of the source. The rule behind the calls is not given here.
